In ChEMBL document CHEMBL6114988, “Design, synthesis and biological evaluation of dual CDK9/PARP inhibitors for the treatment of cancer” (Eur J Med Chem, 2025) one finds inhibition and Activity data, which are given here for 10 molecules.

Amino acid sequences for entries named in this document (tags omitted).
UniProt P09874, whole entry: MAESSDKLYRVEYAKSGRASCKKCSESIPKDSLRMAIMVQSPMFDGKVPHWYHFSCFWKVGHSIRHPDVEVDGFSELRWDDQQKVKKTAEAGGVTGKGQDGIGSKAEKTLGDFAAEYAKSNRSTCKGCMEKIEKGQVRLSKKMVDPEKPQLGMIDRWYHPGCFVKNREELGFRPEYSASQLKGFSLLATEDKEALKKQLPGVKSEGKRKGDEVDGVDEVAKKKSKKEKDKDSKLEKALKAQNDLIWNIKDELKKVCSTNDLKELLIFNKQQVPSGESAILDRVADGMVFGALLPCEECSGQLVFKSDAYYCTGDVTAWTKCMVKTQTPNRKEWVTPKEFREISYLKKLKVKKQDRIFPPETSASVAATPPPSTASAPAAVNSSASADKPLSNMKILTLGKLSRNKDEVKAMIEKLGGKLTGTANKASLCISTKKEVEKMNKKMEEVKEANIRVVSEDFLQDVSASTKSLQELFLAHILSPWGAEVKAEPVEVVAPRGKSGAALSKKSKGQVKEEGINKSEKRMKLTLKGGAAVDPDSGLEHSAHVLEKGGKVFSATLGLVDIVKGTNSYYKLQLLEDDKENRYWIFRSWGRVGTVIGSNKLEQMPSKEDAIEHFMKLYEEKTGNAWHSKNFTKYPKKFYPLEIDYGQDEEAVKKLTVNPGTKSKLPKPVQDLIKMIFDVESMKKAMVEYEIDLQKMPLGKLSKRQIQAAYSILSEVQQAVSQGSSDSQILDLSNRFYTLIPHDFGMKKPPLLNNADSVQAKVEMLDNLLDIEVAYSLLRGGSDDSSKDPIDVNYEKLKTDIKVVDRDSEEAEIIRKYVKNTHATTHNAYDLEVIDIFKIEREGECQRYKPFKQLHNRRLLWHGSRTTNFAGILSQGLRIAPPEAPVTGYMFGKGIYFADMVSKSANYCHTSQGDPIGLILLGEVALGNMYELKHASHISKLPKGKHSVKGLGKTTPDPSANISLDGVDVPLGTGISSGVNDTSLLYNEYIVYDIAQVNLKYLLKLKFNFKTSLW

The target in assay [1] is T1, Poly [ADP-ribose] polymerase 1 (Homo sapiens, UniProt P09874). Put plainly: Inhibition of PARP1 (unknown origin) at 1 uM incubated for 1 hr by ELISA relative to control. For orientation: An ELISA detects its analyte on a solid surface through an enzyme-linked reagent.
Assay [2] has as its target T1, Poly [ADP-ribose] polymerase 1. Put plainly: Inhibition of PARP in human MDA-MB-231 cells assessed as decrease in PARP expression level at 1 uM incubated for 24 hrs by Western blotting analysis. Format: cell-based.
Assay [3] has as its system MDA-MB-231. Kind of assay: Induction of apoptosis in human MDA-MB-231 cells assessed as decrease in Mcl-1 protein level incubated for 24 hrs by Western blotting analysis. The conditions noted are these: dose 0.2-10 µM. Format: functional, cell-based. On the technique in general: A western blot detects proteins with antibodies after separation by electrophoresis.
Assay [4] deals with MDA-MB-231. Put plainly: Inhibition of cell migration in human MDA-MB-231 cells incubated for 24 hrs by wound healing assay. The note with it: dose 0.2-10 µM. Format: functional, cell-based.

Activity calls are given as the source filed them. The calls are words filed in the database; no cut-off is given here.

On to `COc1ccc(-c2cc(Nc3cc(CN4CCN(C(=O)c5cc(Cc6n[nH]c(=O)c7ccccc67)ccc5F)CC4)ccn3)ncn2)c(F)c1`, for which the inhibition in assay [1] came to 92%.

For `COc1cc(F)ccc1-c1cc(Nc2nccc(N3CCN(C(=O)c4cc(Cc5n[nH]c(=O)c6ccccc56)ccc4F)CC3)n2)ncc1F`, the inhibition in assay [1] stood at 95%.

In assay [1], `COc1cc(F)ccc1-c1nc(NC(=O)N2CCN(C(=O)c3cc(Cc4n[nH]c(=O)c5ccccc45)ccc3F)CC2)ncc1F` displayed an inhibition of 95%.

As to `COc1cc(C(F)(F)F)ccc1-c1cc(Nc2cc(CN3CCN(C(=O)c4cc(Cc5n[nH]c(=O)c6ccccc56)ccc4F)CC3)ccn2)ncn1`, the inhibition in assay [1] was determined as 95%.

On to `COc1ccc(OC)c(-c2cc(Nc3cc(CN4CCN(C(=O)c5cc(Cc6n[nH]c(=O)c7ccccc67)ccc5F)CC4)ccn3)ncc2F)c1`, for which, in assay [1], the inhibition is 95%.

As for `COc1cc(F)ccc1-c1cc(Nc2nccc(N3CCN(C(=O)c4cc(Cc5n[nH]c(=O)c6ccccc56)ccc4F)CC3)n2)ncn1`, the inhibition in assay [1] was determined as 97%.

`COc1cc(F)ccc1-c1nc(Nc2ccc(N3CCN(C(=O)c4cc(Cc5n[nH]c(=O)c6ccccc56)ccc4F)CC3)cn2)ncc1F`: the inhibition in assay [1] is 78%.

As for `COc1ccc(-c2cc(Nc3cc(CN4CCN(C(=O)c5cc(Cc6n[nH]c(=O)c7ccccc67)ccc5F)CC4)ccn3)ncc2F)c(F)c1`, the inhibition in assay [1] is 90%.

In the case of `CCOc1cc(F)ccc1-c1cc(Nc2cc(CN3CCN(C(=O)c4cc(Cc5n[nH]c(=O)c6ccccc56)ccc4F)CC3)ccn2)ncn1`, in assay [2], the inhibition result is “Active”. Moreover, the Activity result in the assay on MDA-MB-231 [3] was “Dose-dependent-effect”. In addition, in the assay on MDA-MB-231 [4], the inhibition entry is “Dose-dependent-effect”.

The molecule `COc1cc(C(F)(F)F)ccc1-c1cc(Nc2cc(CN3CCN(C(=O)c4cc(Cc5n[nH]c(=O)c6ccccc56)ccc4F)CC3)ccn2)ncc1F` came in with an inhibition in assay [1] of 94%.

A word on the inhibition: it is the relative decrease from the control value, in per cent.
